Test results taken from paper PMC6677629 (Cancer immunology research, 2019).
Numbering of substitutions follows the chain as printed. Names and notes keep the numbering of the source. Each block holds one binder with its values, some of them ahead of it.

By UniProt entry, the sequences of proteins in these tests, tags left out. Residues count along the entry.
UniProt Q8NHJ6, 22-448: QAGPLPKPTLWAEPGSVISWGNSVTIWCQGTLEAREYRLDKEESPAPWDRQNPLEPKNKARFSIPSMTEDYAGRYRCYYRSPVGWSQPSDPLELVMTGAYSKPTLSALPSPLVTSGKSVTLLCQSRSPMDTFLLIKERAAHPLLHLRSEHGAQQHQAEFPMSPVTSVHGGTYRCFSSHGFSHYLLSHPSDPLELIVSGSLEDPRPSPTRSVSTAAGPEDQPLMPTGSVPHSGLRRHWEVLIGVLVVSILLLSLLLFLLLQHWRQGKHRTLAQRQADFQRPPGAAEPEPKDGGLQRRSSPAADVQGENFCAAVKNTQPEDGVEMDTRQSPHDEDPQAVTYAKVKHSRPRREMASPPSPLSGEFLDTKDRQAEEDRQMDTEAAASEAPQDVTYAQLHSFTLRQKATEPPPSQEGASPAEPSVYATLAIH

Assays:
recombinant LILRB4 [1] = target: T1, recombinant LILRB4 (Homo sapiens, UniProt Q8NHJ6); test: ELISA
recombinant LILRB4 [2] = target: T1, recombinant LILRB4; test: BLI

B1: humanized LILRB4 mAb h128–3 (antibody, V domains shown)
VH: EVQLLESGGGLVQPGGSLRLSCAASGIDFSNHYYMYWVRQAPGKGLEWIGSIFSGDSASTYYADSAKGRFTISRDNSKNTLYLQMNSLRAEDTAVYYCARGMSTNDWASDLWGQGTLVTVSS
VL: DIQMTQSPSSLSASVGDRVTITCQASESINSIYLAWYQQKPGKAPKLLIYRASTLASGVPSRFSGSGSGTDFTLTISSLQPEDFATYYCQQSYDWGDVENTFGGGTKVEIK
EC50 (recombinant LILRB4 [1]): 0.23 nM
Kd (recombinant LILRB4 [2]): 3.5 nM

B2: h128–3 Y33A (LCDR1) (antibody, V domains shown)
VH: B1 VH
VL: B1 VL with Y33A
binding result (recombinant LILRB4 [1]): no binding

B3: h128–3 S103A (HCDR3) (antibody, V domains shown)
VH: B1 VH with S103A
VL: B1 VL
binding result (recombinant LILRB4 [1]): binds

More lines, now with the values ahead:

binding result (recombinant LILRB4 [1]): no binding
B4: h128–3 Y34A (HCDR1) (antibody, V domains shown)
VH: B1 VH with Y34A
VL: B1 VL

binding result (recombinant LILRB4 [1]): no binding
B5: h128–3 Y93A (LCDR3) (antibody, V domains shown)
VH: B1 VH
VL: B1 VL with Y93A
